Where “and” joins values, the source holds several entries; their conditions need not be identical. Equal entries are not always repeated.

Sequences of proteins named here, by UniProt entry; tags and fusion partners are left off. A change or cut given only in a name is not applied to a line headed by its entry.
UniProt P08482: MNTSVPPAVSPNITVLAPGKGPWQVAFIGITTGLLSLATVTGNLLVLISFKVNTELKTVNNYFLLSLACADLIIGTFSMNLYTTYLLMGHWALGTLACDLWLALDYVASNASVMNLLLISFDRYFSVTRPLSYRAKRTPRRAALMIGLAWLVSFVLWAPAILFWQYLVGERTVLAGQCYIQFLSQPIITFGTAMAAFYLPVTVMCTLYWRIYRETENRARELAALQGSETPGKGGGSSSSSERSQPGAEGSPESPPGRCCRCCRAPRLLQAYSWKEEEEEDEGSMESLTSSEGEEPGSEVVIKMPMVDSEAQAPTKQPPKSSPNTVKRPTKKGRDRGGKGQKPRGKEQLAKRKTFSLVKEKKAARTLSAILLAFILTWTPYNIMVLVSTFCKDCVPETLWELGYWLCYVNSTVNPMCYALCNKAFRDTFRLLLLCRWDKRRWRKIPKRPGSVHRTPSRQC
UniProt P10980, whole entry: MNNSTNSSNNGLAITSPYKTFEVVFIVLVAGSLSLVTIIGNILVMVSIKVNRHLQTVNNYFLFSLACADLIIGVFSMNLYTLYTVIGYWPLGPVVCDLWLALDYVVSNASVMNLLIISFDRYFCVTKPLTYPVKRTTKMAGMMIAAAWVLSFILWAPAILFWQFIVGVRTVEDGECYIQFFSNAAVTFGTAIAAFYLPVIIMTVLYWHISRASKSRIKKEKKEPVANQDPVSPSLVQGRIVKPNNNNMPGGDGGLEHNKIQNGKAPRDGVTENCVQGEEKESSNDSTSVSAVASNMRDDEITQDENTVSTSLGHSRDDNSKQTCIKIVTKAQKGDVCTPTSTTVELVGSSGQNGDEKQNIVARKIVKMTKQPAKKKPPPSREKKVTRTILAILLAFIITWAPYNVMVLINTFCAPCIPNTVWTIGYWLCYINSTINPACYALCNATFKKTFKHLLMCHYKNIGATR

As usually defined, the Ki is a dissociation constant, usually derived from enzyme kinetics or from competition with a known ligand. A lower Ki goes with higher affinity.

Experiment [1] concerns the target M1 muscarinic receptors (3H-PZ sites, forebrain) (Rattus norvegicus, UniProt P08482). As to the kind of experiment: Displacement of 3H-Pirenzepine (3H-PZ, selective M1 antagonist) from rat forebrain homogenate. It counts as binding. (In general: Loss of bound radioactivity is the signal in a displacement assay; it reports binding, not function.)
Experiment [2] concerns the target muscarinic receptors (3H-QNB sites, M1 and M2, forebrain). The experiment is classed as binding, rat. To be noted: for Ki: (b) forebrain.
Experiment [3] concerns the target muscarinic receptors (3H-CD sites, M1 and M2, forebrain). In words: Displacement of 3H-cis-dioxolane (3H-CD, non-selective M1 and M2 agonist) from rat forebrain homogenate. It counts as binding.
Experiment [4] deals with muscarinic receptors (3H-QNB sites, cerebellum, mainly M2) (Rattus norvegicus, UniProt P10980). In words: biochemical. The experiment is classed as binding. To be noted: (b") cerebellum.
Experiment [5] concerns muscarinic receptors (3H-QNB sites, cerebellum, mainly M2). As to the kind of experiment: biochemical. It counts as binding, rat. To be noted: FB=forebrain; CER=cerebellum.
For experiment [6], the target named is muscarinic receptors (3H-QNB sites, frontal cortex). It counts as binding, rat. To be noted: (b') frontal cortex.
The target of experiment [7] is muscarinic receptors (3H-CD sites, frontal cortex). As to the kind of experiment: Displacement of 3H-CD from rat frontal cortex homogenate. The experiment is classed as binding. To be noted: (c') frontal cortex.

Take `C[C@@H]1O[C@]2(CS1)CN1CCC2CC1` (relative stereo) [compound 3, 2-methylspiro(1,3-oxathiolan-5,3')quinuclidine]: the “order of the ratios Ki(3H-PZ):Ki(3H-CD)” value in experiment [1] was “oxotremorine >McN-A-343>compound # 3”. In addition, in experiment [1] (forebrain, among oxotremorine, McN-A-343, compound #3), the “order of the ratios Ki(3H-PZ):Ki(3H-QNB)” value is “McN-A-343 >compound #3>oxotremorine”. Moreover, the Ki in experiment [2] was found to be 24.7 ± 2.3 µM; in experiment [3] ((c) forebrain), 1.8 ± 0.1 µM; in experiment [4], 28 ± 2.9 µM. The “order of M1 versus M2 selectivity, IC50 (FB):IC50 (CER) or IC50 (frontal cortex):IC50 (CER)” value in experiment [5] is recorded as “compound #4>compound #3>oxotremorine”.
As to `C[C@H]1O[C@]2(CS1)CN1CCC2CC1` (relative stereo) [compound 4, 2-methylspiro(1,3-oxathiolan-5,3')quinuclidine], the “M1 selectivity (in words)” value in experiment [1] (from Tables 2A, 2B, 2C) is “the most selective M1 agonist, being more selective than the prototype M1 agonist McN-A-343”. Also, the Ki was 7 ± 1 µM in experiment [2]; 0.45 ± 0.18 µM in experiment [3] ((c) forebrain); 7.1 ± 1.5 µM in experiment [6]; 0.39 ± 0.21 µM in experiment [7]; 14.8 µM and 18.1 µM in experiment [4]. Besides, in experiment [5], the “order of M1 versus M2 selectivity, IC50 (FB):IC50 (CER) or IC50 (frontal cortex):IC50 (CER)” value was “compound #4>compound #3>oxotremorine”.
`C[C@H]1O[C@]2(CS1)CN1CCC2CC1` (single isomer, unassigned) [Compound #5, 2-methylspiro(1,3-oxathiolan-5,3')quinuclidine]: in experiment [2], the “times more potent in H-QNB displacement than its racemate (#4)” value was 2.2 times. The Ki in experiment [2] stood at 3.7 ± 0.7 µM; in experiment [3] ((c) forebrain), 0.21 ± 0.06 µM; in experiment [7], 0.2 ± 0.04 µM; in experiment [4] it was 7.9 ± 0.9 µM.
As to `C[C@H]1O[C@]2(CS1)CN1CCC2CC1` (single isomer, unassigned) [compound 6, 2-methylspiro(1,3-oxathiolan-5,3')quinuclidine], the Ki in experiment [2] was 47.4 ± 13.7 µM; in experiment [3] ((c) forebrain), 7.5 µM; in experiment [3] (Table 2B column (c'), footnote *forebrain), 7.94 µM; in experiment [4] it was 99.2 ± 26.8 µM.

For the origin of these results see US4876260A, “Oxathiolanes” (State of Israel, Israel Institute of Biological Research, priority 1988, dated 1989).
